Ab-91 heavy chain CDR variants: yeast mating affinities

Binding partner: SARS-CoV-2 spike HR2 peptide, sequence PDVDLGDISGINAS.

Parent: Ab-91, a human scFv built as VL, a 15-residue (Gly4Ser)3 linker, VH. Only the CDRs of the heavy chain vary.
VL: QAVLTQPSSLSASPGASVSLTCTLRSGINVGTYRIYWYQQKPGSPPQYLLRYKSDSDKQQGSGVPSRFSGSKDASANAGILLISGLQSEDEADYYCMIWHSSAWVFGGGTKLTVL
VH: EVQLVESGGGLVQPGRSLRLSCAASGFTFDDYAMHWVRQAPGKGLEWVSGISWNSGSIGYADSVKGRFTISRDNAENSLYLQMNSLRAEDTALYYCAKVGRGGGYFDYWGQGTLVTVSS

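Phage display of a naive human antibody library on the peptide gave the parent. Variants in AAYL51 differ from the parent at up to three CDR positions; double and triple changes were sampled at random. The assay is AlphaSeq: two haploid yeast populations carry antibody and antigen on their surface. After mating in shaken culture at 30 °C for 16 h, diploids were selected and their barcode pairs sequenced. Scores were corrected for input abundance and mapped to Kd with protein pairs of known affinity run in the same pool. Each pool was mated in three replicate cultures.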

Variants are written as CDR1, CDR2 and CDR3 of the heavy chain (limits as in the source). Parent: GFTFDDYAMH, GISWNSGSIGYADSVK, VGRGGGYFDY. Every variant below is changed at H35 of the VH (sequential numbering). Numbers give log10(Kd / nM), so 0 is 1 nM and 3 is 1 µM. Smaller is tighter. Averages over replicates are reported, and they cover detected replicates only. "nd" means that the variant was in the library but no mating with the target was seen in any replicate; the authors take this as a sign of poor binding, and no number exists. Nonspecific signal, from three strains lacking the peptide, appeared in 21% of pairings of library AAYL51, centred on 4.54 (5% of these signals below 3.26); values are not corrected for it. The control count says in how many pairings with the empty strains this scFv gave a signal. Parent in this assay: reference entry 1.86, copy in this library 0.88.

With GFTFADYAML | GISWNSGSIGYADSIK | VGRGGGYFDY the result was 4.55 (2 of 3 replicates; controls 4 of 9). With GFTFDDYAMP | GISWNSGSIGYADSVK | VFRGYGYFDY the result was nd (0 of 3 replicates; controls 0 of 9). Variant GFTFDDYAMQ | GISWNSGSIGYADAVK | VGRGGGYFDI gave 5.40 (2 of 3 replicates; controls 9 of 9). Variant GFTFDDYAMG | GISWNRGSIGYADSVK | VGRGGLYFDY gave nd (0 of 3 replicates; controls 2 of 9). Variant GFTFDDYAMW | GISWNSGSIGYADSVK | VGRGSNYFDY gave nd (0 of 3 replicates; controls 0 of 9).

For GFTFDDYAMQ | GISWNSGSIGYADSVK | VGRGHGVFDY, the assay gave 5.60 (1 of 3 replicates; controls 4 of 9). With GFTFDDYAMQ | GISWNSGSIGYADSVK | VFRGGGYQDY the result was 5.07 (3 of 3 replicates; controls 3 of 9). Variant GFTFDDYAMA | GISWNSGSIGYADSVK | VGRGGWYFDY showed 4.08 (2 of 3 replicates; controls 0 of 9). With GFFHDDYAMY | GISWNSGSIGYADSVK | VGRGGGYFDY the result was nd (0 of 3 replicates; controls 2 of 9). With GYTFDDYAMI | GISWNSGSIGYADSVK | VGRSGGYFDY the result was nd (0 of 3 replicates; controls 3 of 9).

Variant GFTFDDYKML | GISWNSGSIGYADSVK | VGRGYGYFDY showed nd (0 of 3 replicates; controls 1 of 9). For GFTFDDYQMG | GISWNSGSIGYADSVK | VGRGGGYFFY, the assay gave 4.01 (1 of 3 replicates; controls 0 of 9). For GQTRDDYAMT | GISWNSGSIGYADSVK | VGRGGGYFDY, the assay gave nd (0 of 3 replicates; controls 0 of 9). Variant GFTFDDYAML | GISWNSGSIGYADSVK | VGRGGGCFDY gave nd (0 of 3 replicates; controls 0 of 9). With GFTFDDYAMT | GIKWNSGSIGYADSVK | VGRHGGYFDY the result was 5.55 (2 of 3 replicates; controls 3 of 9).

With GFTFDDYAMF | GISWNSGSIGYADSVM | VGRGGGYFDY the result was nd (0 of 3 replicates; controls 0 of 9). Variant GETFDDYAMG | GISWNSGSIGYADSVK | VGRGGKYFDY gave 5.54 (2 of 3 replicates; controls 3 of 9). For GFTLDDYAMC | GISWNSGSIGYADSVK | VGRGGGYFFY, the assay gave nd (0 of 3 replicates; controls 0 of 9). Variant GFTFDDYAMY | GIQWNSGSIGYADSVK | MGRGGGYFDY showed nd (0 of 3 replicates; controls 1 of 9). Variant GFTFDDYAEA | GISWNSGNIGYADSVK | VGRGGGYFDY gave 4.98 (1 of 3 replicates; controls 5 of 9).

Variant SFTFDDYAMA | GISWNSGSIGYADSVK | VGRGGGYFDY gave 5.27 (2 of 3 replicates; controls 1 of 9). Variant GFTFDDYAML | GISWNSGSTGYADAVK | VGRGGGYFDY gave nd (0 of 3 replicates; controls 0 of 9). Variant GFTFDDYALV | GISWNSGSIGYADSVK | VGRGQGYFDY showed 4.58 (2 of 3 replicates; controls 5 of 9). For GFTFDDYAMD | GISWNSGSIGYHDSVK | VGRGGGHFDY, the assay gave 4.79 (1 of 3 replicates; controls 3 of 9). For GFTFDDYAMC | GISWNSGSIGYHVSVK | VGRGGGYFDY, the assay gave nd (0 of 3 replicates; controls 0 of 9).

For GFTFDDYAMP | GGSWNSGSIGYADSYK | VGRGGGYFDY, the assay gave 5.44 (2 of 3 replicates; controls 3 of 9). Variant GFTFDDYAMI | GISWNSGSLEYADSVK | VGRGGGYFDY showed 4.03 (1 of 3 replicates; controls 1 of 9). Variant GFTFLDYAVE | GISWNSGSIGYADSVK | VGRGGGYFDY gave nd (0 of 3 replicates; controls 0 of 9). With GFTFDDYAMN | GISWNSGSIGAADSVK | VGRGGGYFDY the result was 5.18 (3 of 3 replicates; controls 7 of 9). Variant GFLFDDYAMW | GCSWNSGSIGYADSVK | VGRGGGYFDY showed 5.10 (3 of 3 replicates; controls 6 of 9).

For GFTMDDYAMI | GISWNSGSIGYADSVK | VGRGGGYFDT, the assay gave 4.76 (3 of 3 replicates; controls 2 of 9). With GFTFDDYAMD | GIMWNSGSIGYADSVK | VGRGGGHFDY the result was nd (0 of 3 replicates; controls 0 of 9). Variant GFTCDDYAYE | GISWNSGSIGYADSVK | VGRGGGYFDY gave 3.74 (1 of 3 replicates; controls 0 of 9). Variant GFTFDDYATE | GISWNSGSIGYAQSVK | VGRGGGYFDY gave 5.31 (3 of 3 replicates; controls 5 of 9). Variant GFTNDDYAMS | GISWNSGWIGYADSVK | VGRGGGYFDY gave 4.00 (1 of 3 replicates; controls 3 of 9).

Variant GFTFDDYAMQ | GISWNSGGIGYADSVK | VGRGGGYYDY showed nd (0 of 3 replicates; controls 0 of 9).

Values reported by Engelhart et al. 2022, doi:10.1038/s41597-022-01779-4 (FLAb copy).